# Data taken from PubChem BioAssay AID504357 (The Scripps Research Institute Molecular Screening Center, 2011).
# The chains behind the UniProt entries cited, without tags or fusion partners.
# UniProt P35372, whole entry, looked up: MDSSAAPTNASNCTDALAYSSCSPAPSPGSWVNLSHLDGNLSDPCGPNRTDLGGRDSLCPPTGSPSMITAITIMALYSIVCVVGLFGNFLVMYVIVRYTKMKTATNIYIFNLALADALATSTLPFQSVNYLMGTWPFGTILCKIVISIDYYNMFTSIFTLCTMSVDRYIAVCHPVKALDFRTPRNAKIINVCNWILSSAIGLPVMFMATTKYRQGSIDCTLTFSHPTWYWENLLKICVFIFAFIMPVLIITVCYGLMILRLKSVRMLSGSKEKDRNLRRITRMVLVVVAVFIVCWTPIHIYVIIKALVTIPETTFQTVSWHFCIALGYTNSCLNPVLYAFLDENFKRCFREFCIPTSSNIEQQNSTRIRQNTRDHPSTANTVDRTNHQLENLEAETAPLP
# UniProt P41143, whole entry, looked up: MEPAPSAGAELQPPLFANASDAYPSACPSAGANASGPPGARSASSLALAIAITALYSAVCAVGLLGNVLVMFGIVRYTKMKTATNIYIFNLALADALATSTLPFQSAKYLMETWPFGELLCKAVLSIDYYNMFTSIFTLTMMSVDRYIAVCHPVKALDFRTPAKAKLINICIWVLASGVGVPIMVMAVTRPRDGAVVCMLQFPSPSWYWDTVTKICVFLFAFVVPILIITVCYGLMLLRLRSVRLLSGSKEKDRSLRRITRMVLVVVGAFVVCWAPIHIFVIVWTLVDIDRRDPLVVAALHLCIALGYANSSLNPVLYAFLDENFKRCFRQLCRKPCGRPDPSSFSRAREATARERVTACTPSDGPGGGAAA
# Only a part is listed here, and it is no random draw. The source made the active and inactive calls. Rule as the data show it: active = inhibition above about 22% (passing the limit was not always enough); inactive = the rest.
# Biological target: Mu-type opioid receptor (Homo sapiens) + Delta-type opioid receptor (Homo sapiens) (UniProt P35372+P41143)
# Experiment: inverse agonists of MOR-DOR heterodimerization, primary screen, cell-based, luminescence (AID 504357);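 also: 0% = cells with DMSO and 100% = wells without cells with DMSO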
# Conditions: cell-based MOR-DOR heterodimer luminescence, inverse agonism; at 9.3 µM; stronger effect = higher value
row,SMILES,inhibition
1,COc1cc(I)ccc1[As](=O)(O)O,inactive: 0.11%
2,COc1cccc(NC(=O)[C@@H](NC(=O)N2CCn3c2nc2ccccc23)C(C)C)c1,inactive: 1.74%
3,CCCCNc1nc2ccccc2n1CC(=O)Nc1c(C)cccc1CC,inactive: 5.32%
4,CC(O)CNc1nc2ccccc2n1CC(=O)N1CCN(Cc2ccccc2)CC1 (stereo unspecified),inactive: -2.7%
5,CCCn1c(=O)[nH]c(=O)c2c1nc(-c1ccc3c(c1)OCCO3)n2CCN1CCOCC1,inactive: 1.66%
6,Cn1c(=O)[nH]c(=O)c2c1nc(CN1CCN(c3ccc(F)cc3)CC1)n2CCN1CCOCC1,inactive: 13.1%
7,COc1ccc2nc(NP(=O)(c3ccccc3)c3ccccc3)sc2c1,inactive: 14.2%
8,CCOC(=O)c1cccc(NC(=O)Cn2c(CC(=O)NC)nc3ccccc32)c1,inactive: -3.45%
9,Cc1ccc(NC(=O)Cn2cnc3c(OCc4ccccc4)ncnc32)cc1C,inactive: -5.91%
10,C(=N\c1nc2ccccc2n1CCN1CCCCC1)/c1cccs1,inactive: 5.28%
11,CSCC[C@H](NC(=O)N1CCn2c1nc1ccccc12)C(=O)NCc1ccccc1,inactive: 16.3%
12,Cc1ccc(/C=N/NC(=O)Cn2cnc3ccccc32)o1,inactive: 8.07%
13,CC(C)N(C(=O)Cn1c(-c2ccccc2Cl)nc2ccccc21)c1ccccc1,inactive: 9.71%
14,Cn1c(=O)[nH]c(=O)c2c1nc(N1CCCCCC1)n2CCN1CCCCCC1,inactive: -10.6%
15,O=C(CCCCCNC(=O)N1CCn2c1nc1ccccc12)N[C@@H](C(=O)O)c1ccccc1,inactive: 20%
16,Cc1c2c(nc3ccccc13)SC(C(Cl)Cl)C2 (stereo unspecified),inactive: -20.5%
17,NC(=O)CC(NC(=O)Cc1ccc(Br)cc1)c1ccc(NC2CCN(Cc3ccccc3)CC2)c([N+](=O)[O-])c1 (stereo unspecified),inactive: -1.97%
18,O=C(Cn1cnc2ccccc21)NC(c1ccccc1)c1ccccc1,inactive: 6.48%
19,Cc1ccccc1Oc1ccc2c(c1)[C@@H]1C[C@H](N(C)C(=O)c3ccc(C#N)cc3)[C@H]([C@H](C)O)C(=O)N1CC2,inactive: 4.23%
20,NC(=O)CS(=O)(=O)c1nc2ccccc2n1CC(=O)N1CCCCC1,inactive: 4.74%
21,Cc1ccc(S(=O)(=O)N2CCCCC2)cc1NC(=O)Cn1cnc2c1c(=O)n(C)c(=O)n2C,inactive: 9.77%
22,O=C(Cn1cnc2c(NCc3ccccc3)ncnc21)NCCCN1CCCC1=O,inactive: 18.3%
23,c1ccc2c(c1)ncn2CCN1CCCCC1,inactive: -1.51%

row,SMILES,inhibition
1,Cn1c(=O)c2c(ncn2CC(=O)Nc2nccs2)n(C)c1=O,inactive: 12.2%
2,CCn1cc(C(=O)N2CCn3c(nc4ccccc43)C2)c(=O)c2ccc(C)nc21,inactive: 5.05%
3,Cc1cc(=O)[nH]c(N[N+](=O)[O-])n1,inactive: -3.48%
4,Cn1c(=O)c2c(nc(Cl)n2CC(=O)N2CCCCC2)n(C)c1=O,inactive: 11.4%
5,O=C1C2CCCCC2C(=O)N1c1ccc(NC2CCN(Cc3ccccc3)CC2)c([N+](=O)[O-])c1 (stereo unspecified),inactive: 5.52%
6,O=C(OC1CN2CCC1CC2)C12CC3CC(CC(C3)C1)C2 (stereo unspecified),inactive: 17%
7,CC(C)(C)NC(=O)Cn1c(SCC(=O)NC2CC2)nc2ccccc21,inactive: 18.5%
8,CSc1nc(N)nc2c1ncn2CC(=O)NCc1ccc2c(c1)OCO2,inactive: 17%
9,Cc1cnc(NC(=O)Cn2cnc3c2c(=O)n(C)c(=O)n3C)s1,inactive: 14.3%
10,O=C(O)CCc1nn2c3ccccc3n(CCN3CCCCC3)c2nc1=O,inactive: -6.37%
11,Nc1nonc1-c1nc2ccccc2n1CC(=O)NC1CCCC1,inactive: 11.1%
12,Cc1ccc(-c2csc(NCCn3c(-c4ccncc4)nc4cc(C(F)(F)F)ccc43)n2)cc1,inactive: 9.85%
13,Cc1ccc(Cn2nnnc2CN2CCC(n3nnc4cc(C(F)(F)F)ccc43)CC2)cc1,inactive: -44.6%
14,Cc1ccc2c(c1)C1CN(C)CCC1N2C(=O)c1ccco1 (stereo unspecified),inactive: 12.8%
15,Cc1ccc(S(=O)(=O)Nc2ccc(Cl)cc2)cc1NC(=O)Cn1cnc2c1c(=O)n(C)c(=O)n2C,inactive: 1.12%
16,CC(C)NC(=O)CSc1nc2ccccc2n1CC(=O)N(C(C)C)C(C)C,inactive: -0.28%
17,O=C(Cn1c(NCCO)nc2ccccc21)Nc1cccc(S(=O)(=O)N2CCCC2)c1,inactive: 11.8%
18,CCN(CC)c1ccc(CNc2nc3ccccc3n2CCN2CCOCC2)cc1,inactive: 13.7%
19,CC(C)[Si]1(C(C)C)OCC2OC(n3cnc4c(N)ncnc43)C(N)C2O[Si](C(C)C)(C(C)C)O1 (stereo unspecified),inactive: -1.52%
20,COC(=O)[C@H](Cc1ccc(O)cc1)NC(=O)Cn1cnc2c(SC)nc(N)nc21,inactive: -0.79%
21,NC(=O)CC(NC(=O)c1cccc(Br)c1)c1ccc(NC2CCN(Cc3ccccc3)CC2)c([N+](=O)[O-])c1 (stereo unspecified),inactive: 8.12%
22,N=c1n(CCN2CCCCC2)c2ccccc2n1CC(O)c1ccc(Cl)c(Cl)c1 (stereo unspecified),inactive: -30.5%
23,CN(C)CCn1c(=N)n(CC(O)c2ccc(Cl)c(Cl)c2)c2ccccc21 (stereo unspecified),inactive: -40.2%
